Laboratory results from patent publication US20210221843A1, “EPHA2 AGONISTS AND USES THEREOF” (THE REGENTS OF THE UNIVERSITY OF CALIFORNIA, priority 2018, published 2021).

Chains of the proteins cited; added tags and fusions are not shown. Residues count along the entry.
UniProt P29317, 28-206 limits assumed: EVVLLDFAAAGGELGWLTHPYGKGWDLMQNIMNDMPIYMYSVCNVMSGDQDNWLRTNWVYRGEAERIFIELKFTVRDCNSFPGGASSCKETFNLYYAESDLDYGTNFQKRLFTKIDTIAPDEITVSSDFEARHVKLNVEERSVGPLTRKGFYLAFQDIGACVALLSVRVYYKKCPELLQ
UniProt P29317, 27-200 limits assumed: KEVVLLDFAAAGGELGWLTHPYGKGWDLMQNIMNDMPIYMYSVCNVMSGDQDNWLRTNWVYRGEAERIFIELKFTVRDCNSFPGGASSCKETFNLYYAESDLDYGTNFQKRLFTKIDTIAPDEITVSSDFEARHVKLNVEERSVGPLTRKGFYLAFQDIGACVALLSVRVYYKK

B1: 135G3 (peptide)
peptide: SAYPDSVPFRP
modifications: N-terminal 4F,3ClPhOCH2CO- group (counted as position 1); Hyp at position 9; 4ClPhe at position 10; C-terminal amide
B2: 135C4 (peptide)
peptide: YSAYPDSVPFR
modifications: C-terminal amide (CONH2)
B3: 135G10 (peptide)
peptide: LAYPDAVPFRP
modifications: N-terminal 4F,3ClPhOCH2CO- group (counted as position 1); Hyp at 9; 4ClPhe at 10; C-terminal amide
B4: 135H3 (peptide)
peptide: LAYPDAVPFRP
modifications: N-terminal 4F,3ClPhOCH2CO- group (counted as position 1); 3FAbu ((2S)-2-amino-4,4,4-trifluorobutanoic acid) at 7; Hyp at 9; 4ClPhe at 10; C-terminal amide

Columns and labels:
EphA2-LBD = EphA2-LBD (Homo sapiens, UniProt P29317); test: DELFIA displacement assay (displacement of biotinylated 123B9 from EphA2-LBD); conditions: Table 1, ± SE of duplicate measurements unless n given
[1] = plasma proteases / amino-peptidases; cited from earlier work
[2] = target: T1, 6×His-EphA2-ligand binding domain (LBD) (human, UniProt P29317 27-200, limits assumed); test: DELFIA displacement assay: the test peptide displaces 6xHis-EphA2-LBD from immobilised 123B9-biotin (competitor), Eu-labelled anti-6xHis antibody read-out
T1 construct: Expressed and purified 'as we previously reported (30)'; also called EphA2-LBD; EphA2 LBD; not shown: 6xHis tag

[3] = target: T1, 6×His-EphA2-ligand binding domain (LBD); test: isothermal titration calorimetry
[4] = target: T1, 6×His-EphA2-ligand binding domain (LBD); test: DELFIA displacement assay: the test peptide displaces 6xHis-EphA2-LBD from immobilised 123B9-biotin (competitor), Eu-labelled anti-6xHis antibody read-out; remark: listed apart in the source
[5] = target: T1, 6×His-EphA2-ligand binding domain (LBD); test: DELFIA displacement of 123B9-biotin from 6xHis-EphA2-LBD
[6] = target: T1, 6×His-EphA2-ligand binding domain (LBD); test: as above; remark: listed apart in the source
[7] = target: T1, 6×His-EphA2-ligand binding domain (LBD); test: as above; remark: listed apart in the source

Molecule | IC50 (EphA2-LBD) [µM] | further results
CC(C)[C@H](NC(=O)[C@H](CO)NC(=O)[C@H](CC(=O)O)NC(=O)[C@@H]1CCCN1C(=O)[C@H](Cc1ccc(O)cc1)NC(=O)[C@H](C)NC(=O)[C@H](CO)NC(=O)[C@@H](N)Cc1ccc(O)cc1)C(=O)N[C@@H](CCC(=O)O)C(=O)N[C@@H](Cc1ccccc1)C(=O)N[C@@H](CCCNC(=N)N)C(=O)N1CCC[C@H]1C(N)=O [135A8] | 36.3 ± 6.2 | –
CSCC[C@H](NC(=O)[C@H](Cc1ccccc1)NC(=O)[C@@H]1CCCN1C(=O)[C@@H](NC(=O)[C@H](CO)NC(=O)[C@H](CC(=O)O)NC(=O)[C@@H]1CCCN1C(=O)[C@H](Cc1ccc(O)cc1)NC(=O)[C@H](C)NC(=O)[C@H](CO)NC(=O)[C@@H](N)Cc1ccc(O)cc1)C(C)C)C(=O)N[C@@H](CO)C(N)=O [135C1] | 7.5 ± 0.5 | –
CC(C)[C@H](NC(=O)[C@H](CO)NC(=O)[C@H](CC(=O)O)NC(=O)[C@@H]1CCCN1C(=O)[C@H](Cc1ccc(O)cc1)NC(=O)[C@H](C)NC(=O)[C@H](CO)NC(=O)[C@@H](N)Cc1ccc(O)cc1)C(=O)N1CCC[C@H]1C(=O)N[C@@H](Cc1ccccc1)C(=O)N[C@@H](CCCNC(=N)N)C(=O)N[C@@H](CO)C(N)=O [135C3] | 4.4 ± 0.9 | –
CSCC[C@H](NC(=O)[C@@H]1CCCN1C(=O)[C@@H](NC(=O)[C@H](CO)NC(=O)[C@H](CC(=O)O)NC(=O)[C@@H]1CCCN1C(=O)[C@H](Cc1ccc(O)cc1)NC(=O)[C@H](C)NC(=O)[C@H](CO)NC(=O)[C@@H](N)Cc1ccc(O)cc1)C(C)C)C(=O)N[C@@H](CCCNC(=N)N)C(=O)N[C@@H](CO)C(N)=O [135C7] | 8.8 ± 0.1 | –
CSCC[C@H](NC(=O)[C@@H]1CCCN1C(=O)[C@@H](NC(=O)[C@H](CO)NC(=O)[C@H](CC(=O)O)NC(=O)[C@@H]1CCCN1C(=O)[C@H](Cc1ccc(O)cc1)NC(=O)[C@H](C)NC(=O)[C@H](CO)NC(=O)[C@@H](N)Cc1ccc(O)cc1)C(C)C)C(=O)N[C@@H](CCCNC(=N)N)C(=O)N1CCC[C@H]1C(N)=O [135C8] | 8.4 ± 1.2 | –
CSCC[C@H](NC(=O)[C@@H]1CCCN1C(=O)[C@@H](NC(=O)[C@H](CO)NC(=O)[C@H](CC(=O)O)NC(=O)[C@@H]1CCCN1C(=O)[C@H](Cc1ccc(O)cc1)NC(=O)[C@H](C)NC(=O)[C@H](CO)NC(=O)[C@@H](N)Cc1ccc(O)cc1)C(C)C)C(=O)N[C@@H](CCSC)C(=O)N1CCC[C@H]1C(N)=O [135C9] | 11.8 ± 0.4 | –
CSCC[C@H](NC(=O)[C@H](Cc1ccccc1)NC(=O)[C@@H]1CCCN1C(=O)[C@@H](NC(=O)[C@H](CO)NC(=O)[C@H](CC(=O)O)NC(=O)[C@@H]1CCCN1C(=O)[C@H](Cc1ccc(O)cc1)NC(=O)[C@H](C)NC(=O)[C@H](CO)NC(=O)[C@@H](N)Cc1ccc(O)cc1)C(C)C)C(=O)N1CCC[C@H]1C(N)=O [135C10] | 4.6 ± 0.1 | –
CC(C)[C@H](NC(=O)[C@H](CO)NC(=O)[C@H](CC(=O)O)NC(=O)[C@@H]1CCCN1C(=O)[C@H](Cc1ccc(O)cc1)NC(=O)[C@H](C)NC(=O)[C@H](CO)NC(=O)[C@@H](N)Cc1ccc(O)cc1)C(=O)N1CCC[C@H]1C(=O)N[C@@H](Cc1ccccc1)C(=O)N[C@@H](CCCCN)C(=O)N1CCC[C@H]1C(N)=O [135F1] | 1.5 ± 0.1 | –
CSCC[C@H](NC(=O)[C@H](CCSC)NC(=O)[C@@H]1CCCN1C(=O)[C@@H](NC(=O)[C@H](CO)NC(=O)[C@H](CC(=O)O)NC(=O)[C@@H]1CCCN1C(=O)[C@H](Cc1ccc(O)cc1)NC(=O)[C@H](C)NC(=O)[C@H](CO)NC(=O)[C@@H](N)Cc1ccc(O)cc1)C(C)C)C(=O)N[C@@H](CO)C(N)=O [YSA, reference compound] | – | stability in plasma [1]: fairly unstable in plasma with rapid hydrolysis by amino-peptidases
B1 | – | IC50 (read off the curve) [2]: ~0.5 µM; Kd [3]: ~0.76 µM; IC50 (read off the curve) [4]: ~0.5 µM
B2 | – | IC50 [5]: 4.9 µM
B3 | – | IC50 [6]: 0.22 µM
B4 | – | IC50 [7]: 11.2 µM

Where two headings read alike, the source gives them in different places.
